# Target: Prostaglandin E2 receptor EP2 subtype (Homo sapiens, UniProt P43116)
# Protein sequences, listed by entry. Tags and fused reporters are not part of them. Lines headed by an entry give the natural chain unless they say otherwise; changes in a name come on top.
# UniProt P43116: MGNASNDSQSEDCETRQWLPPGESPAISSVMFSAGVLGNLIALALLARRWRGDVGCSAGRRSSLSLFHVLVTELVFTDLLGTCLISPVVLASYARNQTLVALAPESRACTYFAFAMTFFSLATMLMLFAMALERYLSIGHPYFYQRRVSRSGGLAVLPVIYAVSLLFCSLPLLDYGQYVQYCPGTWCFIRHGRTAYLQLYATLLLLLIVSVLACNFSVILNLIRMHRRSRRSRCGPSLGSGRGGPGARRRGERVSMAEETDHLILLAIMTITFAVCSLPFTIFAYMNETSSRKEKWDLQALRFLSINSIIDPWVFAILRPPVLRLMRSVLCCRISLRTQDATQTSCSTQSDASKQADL
# Assay: Displacement of [3H]prostaglandin E2 from human EP2 receptor expressed in HEK293 cell membranes after 60 mins by liquid scintillation counting
compound,measurement,value
CCCCC[C@H](O)/C=C/[C@H]1[C@H](O)CC(=O)[C@@H]1C/C=C\CCCC(=O)O [DINOPROSTONE],IC50,4 nM

# From ChEMBL document CHEMBL4325826, “Identification of a Selective, Non-Prostanoid EP2 Receptor Agonist for the Treatment of Glaucoma: Omidenepag and its Prodrug Omidenepag Isopropyl” (J Med Chem, 2018)
